In US7112341B1, “Pulmonary administration of dry powder formulations for treating infertility” (Nektar Therapeutics, priority 1999, dated 2006):
Values joined by “and” are separate entries in the source; they are usually repeats but may differ in a detail not shown here. Identical values can stand only once.

Experiments:
[1] = SE-HPLC of higher order uFSH aggregates before and after spray drying; format: physicochemical; conditions: by SE-HPLC
[2] = Pharmacokinetics of uFSH and hFSH variant, IV and SC, in female Fisher rats; format: in vivo; conditions: for CMax: female Fisher rats; for T1/2: terminal elimination half-life; for AUC0–t: time 0 to 24 h
[3] = Colorometric sialic acid assay (extent of uFSH sialylation after spray drying); format: physicochemical; conditions: intact sialic acid, reconstituted powder or stock
[4] = test system: Hypophysectomized immature female rats; test: Steelman/Pohley rat ovarian weight gain assay (ovarian and uterine weight); format: in vivo
[5] = 0.1 μg/day SC for 4 days, hypophysectomized immature female rats

Substance: uFSH: FSH derived from human urine (Vitro Diagnostics, Inc.); mixture of hFSH and hFSH analogs
- higher order aggregates in bulk drug substance [1]: < 0.8%
- AUC0–∞ ([2]; IV 15 μg/kg): 5373 mIU · h/mL
- TMax ([2]; IV 15 μg/kg): 0.1 h
- Serum concentration of immunoreactive uFSH / FSH variant ([2]; IV 15.0 μg/kg, 0.08 h, individual rats): 2435 mIU/mL and 2447 mIU/mL and 1894 mIU/mL
- Serum concentration of immunoreactive uFSH / FSH variant ([2]; IV 15.0 μg/kg, 0.08 h, mean): 2258 mIU/mL
- Serum concentration of immunoreactive uFSH / FSH variant ([2]; IV 15.0 μg/kg, 0.25 h, individual rats): 2992 mIU/mL and 103 mIU/mL and 1223 mIU/mL
- Serum concentration of immunoreactive uFSH / FSH variant ([2]; IV 15.0 μg/kg, 0.25 h, mean): 1439 mIU/mL
- Serum concentration of immunoreactive uFSH / FSH variant ([2]; IV 15.0 μg/kg, 0.5 h, individual rats): 1604 mIU/mL and 2031 mIU/mL and 1888 mIU/mL
- Serum concentration of immunoreactive uFSH / FSH variant ([2]; IV 15.0 μg/kg, 0.5 h, mean): 1841 mIU/mL
- Serum concentration of immunoreactive uFSH / FSH variant ([2]; IV 15.0 μg/kg, 1 h, individual rats): 856 mIU/mL and 920 mIU/mL and 645 mIU/mL
- Serum concentration of immunoreactive uFSH / FSH variant ([2]; IV 15.0 μg/kg, 1 h, mean): 807 mIU/mL
- Serum concentration of immunoreactive uFSH / FSH variant ([2]; IV 15.0 μg/kg, 3 h, individual rats): 477 mIU/mL and 308 mIU/mL and 351 mIU/mL
- Serum concentration of immunoreactive uFSH / FSH variant ([2]; IV 15.0 μg/kg, 3 h, mean): 379 mIU/mL
- Serum concentration of immunoreactive uFSH / FSH variant ([2]; IV 15.0 μg/kg, 6 h, individual rats): 224 mIU/mL and 198 mIU/mL and 200 mIU/mL
- Serum concentration of immunoreactive uFSH / FSH variant ([2]; IV 15.0 μg/kg, 6 h, mean): 207 mIU/mL
- Serum concentration of immunoreactive uFSH / FSH variant ([2]; IV 15.0 μg/kg, 9 h, individual rats): 78 mIU/mL and 85 mIU/mL and 109 mIU/mL
- Serum concentration of immunoreactive uFSH / FSH variant ([2]; IV 15.0 μg/kg, 9 h, mean): 91 mIU/mL
- Serum concentration of immunoreactive uFSH / FSH variant ([2]; IV 15.0 μg/kg, 12 h, individual rats): 84 mIU/mL and 145 mIU/mL and 131 mIU/mL
- Serum concentration of immunoreactive uFSH / FSH variant ([2]; IV 15.0 μg/kg, 12 h, mean): 120 mIU/mL
- Serum concentration of immunoreactive uFSH / FSH variant ([2]; IV 15.0 μg/kg, 24 h, individual rats): 38 mIU/mL and 24 mIU/mL and 23 mIU/mL
- Serum concentration of immunoreactive uFSH / FSH variant ([2]; IV 15.0 μg/kg, 24 h, mean): 28 mIU/mL
- CMax ([2]; IV 15 μg/kg): 2258 mIU/mL
- T1/2 ([2]; IV 15 μg/kg): 6.8 h
- AUC0–t ([2]; IV 15 μg/kg): 5093 mIU · h/mL
- AUC0–∞ ([2]; SC 15 μg/kg): 4566 mIU · h/mL
- TMax ([2]; SC 15 μg/kg): 6.0 h
- Serum concentration of immunoreactive uFSH / FSH variant ([2]; SC 15.0 μg/kg, 0.08 h, individual rats): 5.5 mIU/mL and BQL (2×)
- Serum concentration of immunoreactive uFSH / FSH variant ([2]; SC 15.0 μg/kg, 0.08 h, mean): 1.8 mIU/mL
- Serum concentration of immunoreactive uFSH / FSH variant ([2]; SC 15.0 μg/kg, 0.25 h, individual rats): BQL and 15.8 mIU/mL and 9.3 mIU/mL
- Serum concentration of immunoreactive uFSH / FSH variant ([2]; SC 15.0 μg/kg, 0.25 h, mean): 8.4 mIU/mL
- Serum concentration of immunoreactive uFSH / FSH variant ([2]; SC 15.0 μg/kg, 0.5 h, individual rats): 15.4 mIU/mL and 37.2 mIU/mL and 15.2 mIU/mL
- Serum concentration of immunoreactive uFSH / FSH variant ([2]; SC 15.0 μg/kg, 0.5 h, mean): 22.6 mIU/mL
- Serum concentration of immunoreactive uFSH / FSH variant ([2]; SC 15.0 μg/kg, 1 h, individual rats): 37.9 mIU/mL and 23.8 mIU/mL and 34.8 mIU/mL
- Serum concentration of immunoreactive uFSH / FSH variant ([2]; SC 15.0 μg/kg, 1 h, mean): 32.2 mIU/mL
- Serum concentration of immunoreactive uFSH / FSH variant ([2]; SC 15.0 μg/kg, 3 h, individual rats): 95 mIU/mL and 139 mIU/mL and 170 mIU/mL
- Serum concentration of immunoreactive uFSH / FSH variant ([2]; SC 15.0 μg/kg, 3 h, mean): 135 mIU/mL
- Serum concentration of immunoreactive uFSH / FSH variant ([2]; SC 15.0 μg/kg, 6 h, individual rats): 138 mIU/mL and 168.1 mIU/mL and 150.4 mIU/mL
- Serum concentration of immunoreactive uFSH / FSH variant ([2]; SC 15.0 μg/kg, 6 h, mean): 152 mIU/mL
- Serum concentration of immunoreactive uFSH / FSH variant ([2]; SC 15.0 μg/kg, 9 h, individual rats): 143 mIU/mL and 165 mIU/mL and 117 mIU/mL
- Serum concentration of immunoreactive uFSH / FSH variant ([2]; SC 15.0 μg/kg, 9 h, mean): 142 mIU/mL
- Serum concentration of immunoreactive uFSH / FSH variant ([2]; SC 15.0 μg/kg, 12 h, individual rats): 126 mIU/mL and 144 mIU/mL and 153 mIU/mL
- Serum concentration of immunoreactive uFSH / FSH variant ([2]; SC 15.0 μg/kg, 12 h, mean): 141 mIU/mL
- Serum concentration of immunoreactive uFSH / FSH variant ([2]; SC 15.0 μg/kg, 24 h, individual rats): 75.4 mIU/mL and 70.1 mIU/mL and 74.5 mIU/mL
- Serum concentration of immunoreactive uFSH / FSH variant ([2]; SC 15.0 μg/kg, 24 h, mean): 73.3 mIU/mL
- CMax ([2]; SC 15 μg/kg): 152 mIU/mL
- T1/2 ([2]; SC 15 μg/kg): 16.4 h
- AUC0–t ([2]; SC 15 μg/kg): 2767 mIU · h/mL
- Sialic Acid [3]: 297 ± 15 nmol/mg protein
- Ov wt (ovarian weight) [4, 5]: 31.5 mg
- Ut wt (uterine weight) [4, 5]: 33.0 mg
- Ov wt (ovarian weight) ([4]; 0.3 μg/day SC for 4 days): 35.0 mg
- Ut wt (uterine weight) ([4]; 0.3 μg/day SC for 4 days): 62.0 mg
- Ov wt (ovarian weight) ([4]; 1 μg/day SC for 4 days): 49.2 mg
- Ut wt (uterine weight) ([4]; 1 μg/day SC for 4 days): 78.8 mg
- Ov wt (ovarian weight) ([4]; 3 μg/day SC for 4 days): 41.2 mg
- Ut wt (uterine weight) ([4]; 3 μg/day SC for 4 days): 82.7 mg
